Assay results published in patent publication US20090325894A1 (priority 2007, published 2009).

assay: Solubility in water; format: physicochemical

Solubility in water, more than 1 mg/mL:
Trisodium 4-(2-(2-oleoylaminoethoxy)ethylamino)-4-oxo-butanoyl-L-Alanyl-L-Valyl-Doxorubicin trisuccinate [Example 121]
Bissodium linolenic acyl-L-Alanyl-L-Valyl-Epirubicin bissuccinate [Example 116]
Bissodium linoleic acyl-L-Alanyl-L-Valyl-Epirubicin bissuccinate [Example 115]
Bissodium linolenic acyl-L-Alanyl-L-Valyl-Doxorubicin bissuccinate [Example 109]
Sodium oleoyl-L-Alanyl-L-Valyl-Daunorubicin succinate [Example 118]
Bissodium DHA acyl-L-Alanyl-L-Valyl-Epirubicin bissuccinate [Example 117]
Bisammonium linoleic acyl-L-Alanyl-L-Valyl-Doxorubicin bissuccinate [Example 123]
Bissodium DHA acyl-L-Alanyl-L-Valyl-Doxorubicin bissuccinate [Example 110]
Bissodium linoleic acyl-L-Alanyl-L-Valyl-Doxorubicin bissuccinate [Example 108]
Sodium oleoyl-L-Alanyl-L-Valyl-Doxorubicin maleate [Example 120]
Trisodium oleoyl-L-Alanyl-L-Valyl-Doxorubicin trisuccinate [Example 107]
Bissodium oleoyl-L-Alanyl-L-Valyl-Doxorubicin bissuccinate [Example 105]
Sodium oleoyl-L-Alanyl-L-Valyl-Doxorubicin succinate [Example 106]
Bissodium 4-(2-(2-oleoylaminoethoxy)ethylamino)-4-oxo-butanoyl-L-Alanyl-L-Valyl-Doxorubicin bissuccinate [Example 112]
Bissodium oleoyl-L-Alanyl-L-Valyl-Epirubicin bissuccinate [Example 113]
Bispotassium linoleic acyl-L-Alanyl-L-Valyl-Doxorubicin bissuccinate [Example 122]
